Measured values published in article PMC12120261, “Responsiveness of different MET tumour alterations to type I and type II MET inhibitors” (Clinical and Translational Medicine, 2025).

System: stage IV, CD47‐MET fusion‐positive non‐small‐cell lung cancer (NSCLC)
Conditions: Pt. 2, CD47‐MET NSCLC, before emergence of MET G1090A

C[C@@H](Oc1cc(-c2cnn(C3CCNCC3)c2)cnc1N)c1c(Cl)ccc(F)c1Cl [crizotinib, Crizotinib]
clinical response: responded
